{"sequences": {"note": "Sequences of proteins named here, by UniProt entry; tags and fusion partners are left off.", "UniProt P30543, whole entry": "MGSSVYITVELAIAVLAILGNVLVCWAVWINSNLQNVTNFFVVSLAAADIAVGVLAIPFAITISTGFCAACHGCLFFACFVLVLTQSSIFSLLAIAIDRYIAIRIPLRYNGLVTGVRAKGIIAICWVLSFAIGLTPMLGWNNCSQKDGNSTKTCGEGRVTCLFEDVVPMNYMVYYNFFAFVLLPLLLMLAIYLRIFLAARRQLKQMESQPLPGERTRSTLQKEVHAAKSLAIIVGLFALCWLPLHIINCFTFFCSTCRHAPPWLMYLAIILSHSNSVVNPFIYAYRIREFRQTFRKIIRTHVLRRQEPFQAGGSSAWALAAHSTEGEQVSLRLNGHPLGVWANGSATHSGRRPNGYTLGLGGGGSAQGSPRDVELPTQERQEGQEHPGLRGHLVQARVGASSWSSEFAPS"}, "source": "BindingDB's records for doi:10.1007/bf00175797", "about": "(Pharmakologisches Institut, Heidelberg, 1988)", "target": "Adenosine receptor A2a (Rattus norvegicus, UniProt P30543)", "data": [{"smiles": "CC(Cc1ccccc1)Nc1ncnc2c1ncn2C1OC(CO)C(O)C1O", "note": "(stereo unspecified) [R-N6-(2-phenylisopropyl) adenosine]", "values": [{"measurement": "Ki", "result": 730, "unit": "nM"}]}]}
